{"source": "paper PMC8589317", "about": "“MAPK6-AKT signaling promotes tumor growth and resistance to mTOR kinase blockade” (Science Advances, 2021)", "biological_target": "T1, glutathione S-transferase (GST)-MAPK6 fusion protein (human)", "T1 construct": "MAPK6, human; CDS PCR amplified with primers from the start codon to the stop codon and cloned into the GTK3XF vector between EcoRI and Sal I; Major band of around 130 kDa by Coomassie", "assay": "pull-down; purified GST-MAPK6 or GST as bait, commercially available purified AKT1 protein as prey", "conditions": "both partners purified", "data": [{"binder": "commercially available purified AKT1 protein (enzyme, UniProt P31749 1-480, looked up, AKT1, bought as purified protein; The catalogue number and the His tag are told for the in vitro kinase assay; That both are the same product is surmised) MSDVAIVKEGWLHKRGEYIKTWRPRYFLLKNDGTFIGYKERPQDVDQREAPLNNFSVAQCQLMKTERPRPNTFIIRCLQWTTVIERTFHVETPEEREEWTTAIQTVADGLKKQEEEEMDFRSGSPSDNSGAEEMEVSLAKPKHRVTMNEFEYLKLLGKGTFGKVILVKEKATGRYYAMKILKKEVIVAKDEVAHTLTENRVLQNSRHPFLTALKYSFQTHDRLCFVMEYANGGELFFHLSRERVFSEDRARFYGAEIVSALDYLHSEKNVVYRDLKLENLMLDKDGHIKITDFGLCKEGIKDGATMKTFCGTPEYLAPEVLEDNDYGRAVDWWGLGVVMYEMMCGRLPFYNQDHEKLFELILMEEIRFPRTLGPEAKSLLSGLLKKDPKQRLGGGSEDAKEIMQHRFFAGIVWQHVYEKKLSPPFKPQVTSETDTRYFDEEFTAQMITITPPDQDDSMECVDSERRPHFPQFSYSASGTA", "values": [{"measurement": "binding result", "result": "binds"}]}]}
